Measurements published in patent US20090036450A1, “PYRAZOLE COMPOUNDS AND USE THEREOF” (JAPAN TOBACCO, INC., priority 2006, published 2009).
pIC50: −log10 of the molar value.

By UniProt entry, the sequences of proteins in these tests, tags left out.
UniProt P06737, whole entry: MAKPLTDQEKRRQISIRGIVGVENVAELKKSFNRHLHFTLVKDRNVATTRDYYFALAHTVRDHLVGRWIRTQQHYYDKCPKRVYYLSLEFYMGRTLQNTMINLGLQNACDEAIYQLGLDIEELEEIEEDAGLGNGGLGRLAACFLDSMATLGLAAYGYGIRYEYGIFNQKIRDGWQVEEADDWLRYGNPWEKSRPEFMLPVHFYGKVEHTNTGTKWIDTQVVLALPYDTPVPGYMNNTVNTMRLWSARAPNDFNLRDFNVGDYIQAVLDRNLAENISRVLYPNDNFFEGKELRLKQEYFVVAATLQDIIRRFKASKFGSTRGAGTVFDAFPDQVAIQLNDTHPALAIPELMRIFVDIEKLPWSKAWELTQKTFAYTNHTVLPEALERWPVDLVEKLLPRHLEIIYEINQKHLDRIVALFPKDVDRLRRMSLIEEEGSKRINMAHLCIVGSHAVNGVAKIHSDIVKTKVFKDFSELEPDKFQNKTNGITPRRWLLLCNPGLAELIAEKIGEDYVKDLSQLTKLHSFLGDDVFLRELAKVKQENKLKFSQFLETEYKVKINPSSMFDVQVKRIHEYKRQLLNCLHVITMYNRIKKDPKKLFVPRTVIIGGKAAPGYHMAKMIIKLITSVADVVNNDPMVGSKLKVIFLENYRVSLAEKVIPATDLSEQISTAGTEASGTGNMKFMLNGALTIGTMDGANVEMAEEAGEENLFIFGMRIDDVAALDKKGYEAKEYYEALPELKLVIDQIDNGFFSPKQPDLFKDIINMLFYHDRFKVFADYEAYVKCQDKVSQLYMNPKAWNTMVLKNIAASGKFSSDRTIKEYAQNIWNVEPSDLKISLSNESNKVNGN

Target: human liver glycogen phosphorylase (Homo sapiens, UniProt P06737)
Assay: Liver glycogen phosphorylase activity, forward reaction system (NADPH detection at 340 nm)
Conditions: enzyme inhibitory activity against recombinant human liver glycogen phosphorylase (Sf9 cell lysate), room temperature, 75 minutes

pIC50: > 7.00
Structure (SMILES): Cc1nc(C(=O)O)c(CNC(=O)c2cc(NC(=O)c3cc(F)c(F)cc3C)[nH]n2)o1
